Source: patent US20100286424A1 (priority 2007, published 2010)

How the values were obtained:
mouse = conditions: oral toxicity; cited from earlier work
[1] = Methylating reaction with methylcobalamin under exposure to light and/or heating, speciation by HPLC-ICP-MS; conditions: TMAO as starting material, no GSH (test numbers 82-100 even), tris HCl buffer pH 8, 2 hours
cell growth = conditions: read-out: IC50 value; 24 h, 37° C.; cytotoxicity

| Substance | LD50 (mouse) | stability in the reaction conditions (degradation into iAs (III), iAs(V), MMA or DMA) [1] | IC50 (cell growth) [mM] |
| --- | --- | --- | --- |
| trimethylarsineoxide | 10,600 mg/kg | no degradation | > 6 |
| monomethyl arsonic acid | 1,800 mg/kg |  | > 6 |
| arsenocholine | 6,000 mg/kg |  |  |
